Patent publication US20250295800A1, “CONJUGATE OF A SINGLE DOMAIN ANTIBODY, A SAPONIN AND AN EFFECTOR MOLECULE, PHARMACEUTICAL COMPOSITION COMPRISING THE SAME, THERAPEUTIC USE OF SAID PHARMACEUTICAL COMPOSITION” (SAPREME TECHNOLOGIES B.V., priority 2021, published 2025)

Tests used:
Type in all cases: cell-based, human
Settings in all cases: titrated on fixed 50 pM bivalentVHH-EGFR-dianthin
[1] = system: SK-BR-3 cells (HER2++/EGFR+/CD71+); test: Cell killing (MTS) assay on SK-BR-3 cells
Procedure: (§1) After treatment the cells were incubated for 72 hr at 37° C. before the cell viability was determined by a MTS-assay, performed according to the manufacturer's instruction (CellTiter 96@AQueous One Solution Cell Proliferation Assay, Promega). Briefly, the MTS solution was diluted 20× in DMEM without phenol red (PAN-Biotech GmbH) supplemented with 10% FBS. The cells were washed once with 200 μL/PBS well, after which 100 μL diluted MTS solution was added/well. The plate was incubated for approximately 20-30 minutes at 37° C. Subsequently, the OD at 492 nm was measured on a Thermo Scientific Multiskan FC plate reader (Thermo Scientific). For quantification the background signal of ‘medium only’ wells was subtracted from all other wells, before the cell viability percentage of treated/untreated cells was calculated, by dividing the background corrected signal of treated wells over the background corrected signal of the untreated wells (×100).

[2] = system: MDA-MB-468 cells (HER2-/EGFR++/CD71+); test: Cell killing (MTS) assay on MDA-MB-468 cells
Procedure: as §1

[3] = system: A2058 cells (EGFR-/HER2+/-/CD71+); test: Cell viability / cell killing (MTS) assay on A2058 cells
Procedure: (§2) Cells were seeded in a 96 well plate at 5.000-10.000 c/w in 100 μL/well and incubated overnight at 37° C. The next day 10× concentrated treatment-mix samples were prepared in PBS, which contain antibody-conjugated SO1861 (i.e. a ‘binding molecule’ or an ‘endosomal escape enhancing conjugate’ of the invention) and targeted-toxin (i.e. a ‘binding molecule’) both at 10× final concentration. The media was removed from the cell culture plate and replaced by 180 μL culture media, followed by the addition of 20 μL treatment-mix/well. […] After treatment the cells were incubated for 72 hr at 37° C. before the cell viability was determined by a MTS-assay, performed according to the manufacturer's instruction (CellTiter 96® AQueous One Solution Cell Proliferation Assay, Promega). […] Subsequently, the optical density at 492 nm was measured on a Thermo Scientific Multiskan FC plate reader (Thermo Scientific). For quantification the background signal of ‘medium only’ wells was subtracted from all other wells, before the ratio of untreated/treated cells was calculated, by dividing the background corrected signal of untreated wells over the background corrected signal of the treated wells. […]

[4] = system: A431 cells (EGFR++/HER2+/-/CD71+); test: Cell viability / cell killing (MTS) assay on A431 cells
Procedure: as §2

| Substance | IC50 [1] [nM] | IC50 [2] [nM] | IC50 [3] [nM] | IC50 [4] [nM] |
| --- | --- | --- | --- | --- |
| cetuximab-SO1861 (DAR4): cetuximab conjugated to SO1861-EMCH via cysteines, labile hydrazone bond | 200 | 0.5 | 400 | 4 |
| trastuzumab-SO1861 (DAR4): trastuzumab conjugated to SO1861-EMCH via cysteines, labile hydrazone bond | – | 400 | 400 | 400 |
